Values quoted from earlier work in PMC5999399 (Journal of medicinal chemistry, 2017).

Sequences of proteins named here, by UniProt entry; tags and fusion partners are left off. A change or cut given only in a name is not applied to a line headed by its entry.
UniProt P32245, whole entry: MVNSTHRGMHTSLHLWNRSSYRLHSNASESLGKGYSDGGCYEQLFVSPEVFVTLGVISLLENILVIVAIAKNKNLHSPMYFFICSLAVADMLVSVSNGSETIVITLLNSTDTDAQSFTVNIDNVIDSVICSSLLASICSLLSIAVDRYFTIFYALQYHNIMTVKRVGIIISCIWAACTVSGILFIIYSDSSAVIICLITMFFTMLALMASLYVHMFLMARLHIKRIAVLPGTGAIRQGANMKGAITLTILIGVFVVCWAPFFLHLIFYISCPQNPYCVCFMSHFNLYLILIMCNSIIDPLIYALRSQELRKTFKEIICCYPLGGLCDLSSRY
UniProt Q01726: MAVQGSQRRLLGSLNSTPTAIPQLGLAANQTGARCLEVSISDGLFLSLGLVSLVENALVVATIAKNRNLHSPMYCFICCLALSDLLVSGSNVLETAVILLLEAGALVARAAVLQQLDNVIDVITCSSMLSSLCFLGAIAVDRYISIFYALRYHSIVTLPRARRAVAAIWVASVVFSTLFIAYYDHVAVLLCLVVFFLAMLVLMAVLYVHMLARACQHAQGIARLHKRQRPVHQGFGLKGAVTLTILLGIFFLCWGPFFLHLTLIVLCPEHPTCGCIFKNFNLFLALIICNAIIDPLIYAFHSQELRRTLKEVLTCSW

Tests used:
human MC4R (hMC4R) [1] = molecular target: T1, human MC4R (hMC4R) (Homo sapiens, UniProt P32245); settings: read-out: hMC4R IC50; 50% specific binding; ref previously published data; cited from earlier work
human MC1R (hMC1R) = human MC1R (hMC1R) (Homo sapiens, UniProt Q01726); settings: read-out: hMC1R EC50; cAMP accumulation; ref previously published data; cited from earlier work
human MC4R (hMC4R) [2] = molecular target: T1, human MC4R (hMC4R); settings: read-out: hMC4R EC50; cAMP accumulation; ref previously published data; cited from earlier work

Q: For “H-Tyr-Val-Nle-Gly-His-D-Nal(2)-Arg-D-Trp-Asp-Arg-Phe-Gly-NH2 [Compound 1]”, which IC50 (human MC4R (hMC4R) [1]) is on record?
A: Its IC50 is 6 ± 1 nM.

Q: And the EC50 (human MC1R (hMC1R))?
A: The EC50 was 3 ± 0.2 nM.

Q: What about the EC50 (human MC4R (hMC4R) [2]) of the same substance?
A: The EC50 was 630 ± 70 nM.
